The values that follow are results of earlier work, collected in Sander's compilation of Henry's law constants (doi:10.1016/s0045-6535(00)00505-1).

This data set in a line: Henry solubility constant Hcp at 298.15 K (mol/(m3 Pa)). As to conditions: reference: Staudinger and Roberts (2001); cited value.

Take `CCC(C)O[N+](=O)[O-]` (configuration not stated) [2-butyl nitrate]: the “Henry solubility constant Hcp” value is 0.0064.

On to `CCl` [chloromethane], for which the “Henry solubility constant Hcp” value was 0.0011.
